## scFv variants of Ab-91 (heavy chain) against a SARS-CoV-2 spike peptide

Values reported by Engelhart et al. 2022, doi:10.1038/s41597-022-01779-4 (FLAb copy).

Target: peptide PDVDLGDISGINAS, taken from heptad repeat 2 (HR2) of SARS-CoV-2 spike.

Parent: Ab-91, a human scFv built as VL, a (GGGGS)3 linker, VH. Only the CDRs of the heavy chain vary.
VL: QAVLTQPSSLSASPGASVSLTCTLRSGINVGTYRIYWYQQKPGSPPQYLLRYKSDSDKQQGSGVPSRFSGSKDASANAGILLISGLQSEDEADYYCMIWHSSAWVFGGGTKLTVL
VH: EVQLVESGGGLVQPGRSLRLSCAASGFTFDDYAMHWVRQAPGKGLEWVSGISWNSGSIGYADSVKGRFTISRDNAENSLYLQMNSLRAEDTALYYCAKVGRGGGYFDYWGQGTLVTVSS

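Phage display of a naive human antibody library on the peptide gave the parent. Library AAYL51 holds single substitutions and randomly drawn double and triple substitutions in the CDRs. The scFvs were displayed on barcoded MATa yeast, the peptide on MATalpha yeast. Mating (16 h, 30 °C) was followed by selection of diploids and sequencing of their barcodes. A regression on co-assayed BCL2-family reference pairs converts the normalised counts of each replicate to an apparent Kd. There are three technical replicates.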

Variants are written as CDR1, CDR2 and CDR3 of the heavy chain (limits as in the source). Parent: GFTFDDYAMH, GISWNSGSIGYADSVK, VGRGGGYFDY. Affinities are written as log10 Kd with Kd in nM; a lower number is a better binder. A mean of the replicates is given; it leaves out those without a signal. An entry "nd" has no value in the source: the pair was not observed among the diploids in any replicate. This suggests poor binding but is not conclusive.

CDR-H1,CDR-H2,CDR-H3,"log10 Kd (nM), mean",seen in
GRTFDTYAMH,GISWNSGSIGYADSVK,VARGGGYFDY,4.96,2 of 3
GFTFDDYAMH,GISWNSGPVGYADSVK,VDRGGGYFDY,nd,0 of 3
GFIFDDYAMH,GISWNSGSIGYADVLK,VGRGGGYFDY,4.13,1 of 3
GFTFDDYAFH,GISWNSGSIGYADSVM,VGRGTGYFDY,5.26,1 of 3
GFTFDDYAIH,GIYWNSGSEGYADSVK,VGRGGGYFDY,3.76,1 of 3
GFTWDDYAMH,GICWNSGSIGYADSVE,VGRGGGYFDY,5.54,1 of 3
SFTFDDYAAH,GISWNSGSIGYADRVK,VGRGGGYFDY,nd,0 of 3
GDTFDDYRMH,GISWNSGSIGYAFSVK,VGRGGGYFDY,nd,0 of 3
GFTFDDEAMH,GISWNSGSIGYMDSVK,TGRGGGYFDY,4.08,1 of 3
EFYFDDYAMH,GESWNSGSIGYADSVK,VGRGGGYFDY,5.39,1 of 3
GFTFLDYAMH,GISWNSGSIGYADSVK,VGRGIGYFDY,3.79,1 of 3
GFTFDWYAMH,GISWWSGSIGYADSVK,VGRGGGYFPY,4.43,2 of 3
GFTFDDYAMH,GINWQSGSIRYADSVK,VGRGGGYFDY,4.84,3 of 3
GFGFDDYWMH,GISWNSGSIGYADTVK,VGRGGGYFDY,nd,0 of 3
RFTFDDYAMH,GISWNSGSIGSADSVK,VERGGGYFDY,nd,0 of 3
GFKFDDYAMH,GTSWNSGSIGYADSPK,VGRGGGYFDY,4.89,2 of 3
GFTFHDYAMH,GISWCSGSIGYADSVK,VGRGGGYFDY,2.90,3 of 3
GFTFDDEAMH,GISWNSGSIGYADSVA,EGRGGGYFDY,5.99,1 of 3
GFTFDDYAMH,GKSWNSGSIGYADSVK,VGPGGGYFDY,4.79,2 of 3
GCTFDDCAMH,GDSWNSGSIGYADSVK,VGRGGGYFDY,nd,0 of 3
GFTFDDYAMH,GISWNSGSIHYAVSVK,VGRCGGYFDY,nd,0 of 3
GFTFDDYAMH,GISWNSGSKGYADSVK,VGWGGGYFDV,2.48,3 of 3
GFTFDDYAMH,NKSLNSGSIGYADSVK,VGRGGGYFDY,nd,0 of 3
GFTFDDYAPH,GISWNSGSIGYADSVK,VGRKGGYFDY,nd,0 of 3
GFTFDDYAMC,GISWNSGSIGYADSVK,VGRGGGYFIY,4.10,1 of 3
GFTFDDYAQH,GISWNSGSIGYADSVI,VGRNGGYFDY,5.23,3 of 3
GFTFDDYAMH,GISWLSGSIGYADSVK,VGCGGRYFDY,3.44,1 of 3
GQTFDDYAMH,GISWNSGMIGYADSVK,VGRGGGYSDY,nd,0 of 3
MFTFDHYAMH,GISWNSGSIGYADSVK,VGRGGTYFDY,4.43,2 of 3
CFTFDDYAMH,GISWNSGSIGYADSVA,VGRGGGYFDY,4.39,2 of 3
GFTFDDYAMH,GISWNSGLIGYADSVK,VGRGGGYFYY,nd,0 of 3
GFTFDDYALH,GISWNSGSIYYADSCK,VGRGGGYFDY,nd,0 of 3
GFTCDDYAMH,GISWNSGSIGYADCVK,VGRGGGWFDY,nd,0 of 3
GFTFDDYAMH,GISWNSGSIMAADSVK,VGRGGGYFPY,nd,0 of 3
GFTFDDYAMH,GIFWNQGSIGYADSVK,VGYGGGYFDY,4.37,2 of 3
GFTFDDYAMH,GISRNSGSIGYADSVK,VGDGGGYFDR,4.71,2 of 3
GETFIDYAMH,GISWNSASIGYADSVK,VGRGGGYFDY,nd,0 of 3
GFTFDDYAMH,GISWNSGSIGYADSVK,DGRGGGYFDH,nd,0 of 3
GFTFDDYAMH,GISWCSGSIVYADFVK,VGRGGGYFDY,nd,0 of 3
GFTFDDYAMH,GISWNSGSIMYADCVK,VRRGGGYFDY,4.34,2 of 3
GFMFDDYAMH,GISWNSGSIGYAFSVK,VGRGGGYQDY,nd,0 of 3
GWTFGDYAMH,VISWNSGSIGYADSVK,VGRGGGYFDY,nd,0 of 3
GFTFDDYAMH,GISKNSGSIGYADSKK,VGRRGGYFDY,4.14,1 of 3
GFTFDDYAMH,GISPSSGSIGMADSVK,VGRGGGYFDY,1.41,3 of 3
DFTFDDYAMH,GISWNSGSIGYADSVL,VGRGGEYFDY,nd,0 of 3
GFTFDDYAMH,GISWNSGSIGYADTVK,VGRGGGHIDY,4.54,2 of 3
GGTFDDYAMH,PISWNRGSIGYADSVK,VGRGGGYFDY,nd,0 of 3
KFTFDDHAMH,GISWNSGSIGYADSVK,VGRGCGYFDY,5.70,1 of 3
GFTFDDAAMP,GISWNSGSIGYADSVK,VGRGGGYFDY,4.61,3 of 3
GFTFDDYAMH,GISWNSGAIYYADSVK,VGRGGGWFDY,nd,0 of 3
GKTFDDYAMH,GISWNSGSCGYADSVK,VGRGGMYFDY,nd,0 of 3
GFTFLDYAMH,GISWNSGSISYADSVK,VGGGGGYFDY,nd,0 of 3
GFHFDQYAMH,GISWNSGSIGYADSVK,VGRDGGYFDY,4.42,2 of 3
GFTFDDYAMT,GISWNSGSIGYADSVK,VGRLGKYFDY,4.13,1 of 3
GFTFDKYAMH,GISWNSGSIGYADSVK,VGRGGGWFDY,1.76,3 of 3
GFTFDDYAMH,GISWNSCVIGYTDSVK,VGRGGGYFDY,nd,0 of 3
GFTFDDYTMH,GISWNSGSIGYTDSVK,VARGGGYFDY,3.76,1 of 3
GFTFPDYWMH,GISWNSGSIGYMDSVK,VGRGGGYFDY,nd,0 of 3
GFTFDDYAMH,GISWNSGSAGYADSVK,VGRGGAYPDY,0.68,3 of 3
GFTFDDYAMH,GIYWNSGSIGYYDSVK,VGRGGCYFDY,nd,0 of 3
GFTFDDYAMH,GIFWLSGSIGYADLVK,VGRGGGYFDY,3.91,1 of 3
GFTTDDYAMH,GISWNSGSIGYADVHK,VGRGGGYFDY,nd,0 of 3
YFTFDDYAMH,GISWNSGSHGYADSVK,VGRGFGYFDY,nd,0 of 3
GFTFDDYAMH,GLSWNSGSIGYNDIVK,VGRGGGYFDY,3.26,3 of 3
GFTMDDYAMH,GISWQSGSIGYADSHK,VGRGGGYFDY,3.59,1 of 3
GFTFDDYAMM,GISWHSGSIGYADSVK,VGRGGGSFDY,5.03,3 of 3
GFTEDDYVMH,GISWNSGSIGYADSVK,VGRGGGDFDY,nd,0 of 3
AFTFDDYAMY,GISWNSGSIGYADSVK,VGRGGGYYDY,4.45,3 of 3
GFTTDAYAMH,GISWNSGSIGMADSVK,VGRGGGYFDY,2.39,1 of 3

A selection of 8 entries from above:

CDR-H1	CDR-H2	CDR-H3	log10 Kd (nM), mean	seen in
GFTFDDEAMH	GISWNSGSIGYMDSVK	TGRGGGYFDY	4.08	1 of 3
SFTFDDYAAH	GISWNSGSIGYADRVK	VGRGGGYFDY	nd	0 of 3
GFTFDDYALH	GISWNSGSIYYADSCK	VGRGGGYFDY	nd	0 of 3
GFGFDDYWMH	GISWNSGSIGYADTVK	VGRGGGYFDY	nd	0 of 3
GFTFDDYAMH	GKSWNSGSIGYADSVK	VGPGGGYFDY	4.79	2 of 3
GFTFDDYAMH	GIFWNQGSIGYADSVK	VGYGGGYFDY	4.37	2 of 3
GFTFDDYAMH	GISWNSGSIGYADTVK	VGRGGGHIDY	4.54	2 of 3
GFTFDDYAMT	GISWNSGSIGYADSVK	VGRLGKYFDY	4.13	1 of 3

Nonspecific signal, from three strains lacking the peptide, appeared in 21% of pairings of library AAYL51, centred on 4.54 (5% of these signals below 3.26); values are not corrected for it.